Measured values: patent publication US9127044B2, “Cyclic depsipeptides” (NOVARTIS AG, priority 2007, dated 2015)

Sequences of proteins named here, by UniProt entry; tags and fusion partners are left off. Residues count along the entry.
UniProt P49862, 30-253 limits assumed: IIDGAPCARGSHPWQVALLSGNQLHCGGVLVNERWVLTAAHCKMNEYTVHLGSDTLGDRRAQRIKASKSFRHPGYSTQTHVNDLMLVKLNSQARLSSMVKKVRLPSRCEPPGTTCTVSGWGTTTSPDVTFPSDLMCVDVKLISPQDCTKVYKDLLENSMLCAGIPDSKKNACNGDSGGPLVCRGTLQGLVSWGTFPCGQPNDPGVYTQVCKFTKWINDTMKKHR
UniProt P08246, 30-267 limits assumed: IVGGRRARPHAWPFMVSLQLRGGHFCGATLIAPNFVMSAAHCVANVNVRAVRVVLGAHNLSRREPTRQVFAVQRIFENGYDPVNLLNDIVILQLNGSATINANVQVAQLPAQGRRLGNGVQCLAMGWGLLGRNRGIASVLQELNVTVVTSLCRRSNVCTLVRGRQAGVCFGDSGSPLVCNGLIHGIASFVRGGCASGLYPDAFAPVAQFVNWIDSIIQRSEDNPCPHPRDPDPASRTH

How the values were obtained:
Crl:NMRI mice = test: Anti-inflammatory activity in murine model of allergic contact dermatitis (ACD), oxazolone
Protocol: Method: Crl:NMRI mice were sensitized on the shaved abdomen with 50 μl of 2% oxazolone on day 1 and challenged with 10 μl oxazolone on the inner surface of the right ear on day 8. The unchallenged left ears served as normal controls and dermatitis was evaluated from the difference in auricular weight (taken as a measure of inflammatory swelling) on day 9. The animals were treated topically with 10 μl test compound or the solvent only 30 min after the challenge. The efficacy of the treatment was calculated as the percentage inhibition of inflammatory auricular swelling relative to animals treated with the vehicle alone.

human kallikrein 7 = human kallikrein 7 (Homo sapiens, UniProt P49862); test: Kallikrein-7 inhibitory activity in vitro (fluorescence-quenched substrate); format: biochemical; conditions: read-out: hKallikrein7 IC 50; Table 11
[1] = target: Human neutrophil elastase (Homo sapiens, UniProt P08246); test: HNE inhibitory activity in vitro (fluorescence-quenched substrate); format: biochemical; conditions: read-out: human neutrophile elastase IC 50; Table 11
Protocol: Human neutrophil elastase (cat. no. SE563) is purchased from Elastin Products Company, Inc. (EPC, Owensville, USA). The dry powder (purity >95% stated by the supplier) was dissolved in 20 mM sodium acetate buffer, pH 5.0, 50% (v/v) glycerol, and frozen at −80° C. in aliquots.
The fluorescence-quenched substrate (DABCYL-Ser-Glu-Val^Asn-Leu-Asp-Ala-Glu-Phe-EDANS, where ^ indicates the scissile bond, identified by MS analysis) was purchased from Bachem AG (Bubendorf, Switzerland), and kept as a 5 mM stock solution in DMSO at −20° C. All other chemicals were of analytical grade.
Enzymatic reactions were conducted in 100 mM Tris/HCl buffer at pH 7.5, containing 500 mM NaCl, and 0.05% (w/v) CHAPS.
All protein and peptide containing solutions are handled in siliconized tubes (Life Systems Design, Merenschwand, Switzerland).
The compound solutions as well as the enzyme and the substrate solutions are transferred to the 384-well plates (black Cliniplate; cat. no. 95040020 Labsystems Oy, Finland) by means of a CyBi-Well 96-channel pipettor (CyBio AG, Jena, Germany).
For fluorescence intensity (FI) measurements an Ultra Evolution reader (TECAN, Maennedorf, Switzerland) is used. The instrument is equipped with a combination of a 350 nm (20 nm bandwidth) and a 500 nm (25 nm bandwidth) bandpass filter for fluorescence excitation and emission acquisition, respectively. […]

[2] = Table 14, concentration of test compound 10 mM
[3] = Table 14, concentration of test compound 30 mM

Structure (SMILES)	% Inhibition of inflammatory swelling (Crl:NMRI mice; [2])	% Inhibition of inflammatory swelling (Crl:NMRI mice; [3])	IC50 (human kallikrein 7)	IC50 [1]
CCC(C)[C@@H]1NC(=O)[C@H](Cc2ccc(O)cc2)N(C)C(=O)[C@H](C(C)CC)N2C(=O)C(CC[C@@H]2OCc2ccccc2)NC(=O)[C@H](CC(C)C)NC(=O)[C@@H](NC(=O)[C@H](CCC#N)NC(=O)C(C)C)[C@@H](C)OC1=O (some centres unmarked)	39%	38%	3.75 nM	2.5 nM
CCO[C@H]1CCC2NC(=O)[C@H](CC(C)C)NC(=O)[C@@H](NC(=O)[C@H](CCC#N)NC(=O)C(C)C)[C@@H](C)OC(=O)[C@H](C(C)CC)NC(=O)[C@H](Cc3ccc(O)cc3)N(C)C(=O)[C@H](C(C)CC)N1C2=O (some centres unmarked)	48%	40%	5 nM	3 nM
